The text below walks through data of patent US12213973B2, “Bacterial nitric oxide synthase inhibitors” (Northwestern University, priority 2021, dated 2025).

Sequences of proteins named here, by UniProt entry; tags and fusion partners are left off.
UniProt O34453, whole entry: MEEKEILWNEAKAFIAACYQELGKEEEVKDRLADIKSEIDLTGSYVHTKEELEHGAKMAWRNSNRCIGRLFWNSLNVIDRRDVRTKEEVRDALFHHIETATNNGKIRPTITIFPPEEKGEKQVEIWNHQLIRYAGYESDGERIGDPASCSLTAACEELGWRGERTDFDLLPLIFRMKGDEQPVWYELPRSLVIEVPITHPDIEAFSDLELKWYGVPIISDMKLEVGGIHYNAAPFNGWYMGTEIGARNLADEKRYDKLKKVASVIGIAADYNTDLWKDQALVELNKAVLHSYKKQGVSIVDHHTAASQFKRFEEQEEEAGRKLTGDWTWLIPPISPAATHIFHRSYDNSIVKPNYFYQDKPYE

This experiment has as its target bNOS (Bacillus subtilis, UniProt O34453). Description: Thermodynamic profiling (Kd) with bNOS. The note with it: read-out: dissociation constant (Kd) with bNOS active site, FIG. 3. The class given is binding.

Take `CNCc1cccc(OCc2ccc3ccc(N)nc3c2)c1`: the Kd worked out at 5.25 µM.

By Kd is commonly meant the free concentration of one partner at which half of the binding sites on the other are occupied at equilibrium, for simple one-to-one binding.
